Experimental data published in ChEMBL document CHEMBL5725589, “Heterocyclic compounds as PI3K-γ inhibitors” (2018).

Molecular target: T1, Phosphatidylinositol 4,5-bisphosphate 3-kinase catalytic subunit delta isoform (Homo sapiens, UniProt O00329)
T1 sequence (O00329 whole entry): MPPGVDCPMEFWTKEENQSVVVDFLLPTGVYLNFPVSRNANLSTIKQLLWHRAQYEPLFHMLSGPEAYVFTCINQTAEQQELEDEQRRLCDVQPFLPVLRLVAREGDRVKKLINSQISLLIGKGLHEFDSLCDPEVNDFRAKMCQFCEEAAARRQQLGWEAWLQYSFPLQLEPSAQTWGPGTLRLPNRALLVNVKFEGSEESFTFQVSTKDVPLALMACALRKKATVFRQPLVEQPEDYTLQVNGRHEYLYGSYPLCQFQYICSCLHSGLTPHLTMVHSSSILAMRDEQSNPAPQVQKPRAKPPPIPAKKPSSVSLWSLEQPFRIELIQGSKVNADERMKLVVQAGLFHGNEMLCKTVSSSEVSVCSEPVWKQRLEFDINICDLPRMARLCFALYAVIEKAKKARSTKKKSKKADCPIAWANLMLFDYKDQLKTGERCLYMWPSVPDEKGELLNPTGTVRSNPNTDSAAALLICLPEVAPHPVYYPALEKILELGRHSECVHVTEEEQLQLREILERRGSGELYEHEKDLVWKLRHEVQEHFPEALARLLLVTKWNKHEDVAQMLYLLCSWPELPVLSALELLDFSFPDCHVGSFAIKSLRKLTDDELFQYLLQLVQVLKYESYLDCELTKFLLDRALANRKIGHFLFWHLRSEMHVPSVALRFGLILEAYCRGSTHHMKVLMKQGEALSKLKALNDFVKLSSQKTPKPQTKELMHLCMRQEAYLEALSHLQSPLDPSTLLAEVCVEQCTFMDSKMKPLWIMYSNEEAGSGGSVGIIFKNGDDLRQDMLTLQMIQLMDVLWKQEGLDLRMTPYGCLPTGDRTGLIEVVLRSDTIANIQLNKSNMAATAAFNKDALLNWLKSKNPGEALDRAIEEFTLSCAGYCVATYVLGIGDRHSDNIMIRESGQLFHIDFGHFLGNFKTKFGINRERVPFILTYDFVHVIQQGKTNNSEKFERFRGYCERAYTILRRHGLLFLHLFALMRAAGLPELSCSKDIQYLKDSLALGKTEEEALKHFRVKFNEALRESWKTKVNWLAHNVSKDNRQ
Experiment: PI3Kδ (p110δ/p85α) Recombinant Human Protein was purchased from Eurofins (St Charles, Mo.). […] The final concentration of DMSO in the assay was 2%. […] ATP, 3.4 nM PI3Kδ. […] The final concentration of SPA beads is 1.0 mg/mL.

SMILES: Cc1csc2nc([C@H](C)Nc3ncnc4[nH]cnc34)c(-c3cccc(F)c3)c(=O)n12 [DEZAPELISIB]
- IC50: < 100 nM
